From PMC6774396 (Frontiers in Immunology, 2019)

Test system: Human FERM domain of moesin (residues 1–297)
Test: SPR competition of soluble L-selectin tail peptides against chip-immobilized L-selectin tail/moesin FERM complex
Details: biotinylated peptide immobilized on streptavidin chip, 5 μM moesin FERM in HBS-P pH 7.4, 25°C

In the case of “biotinylated NPP: N-terminally biotinylated human L-selectin tail peptide (conjugated to Arg-356), immobilized on streptavidin chip (Biotin-RRLKKGKKSKRSMNDPY)”, the “complex formation with moesin FERM” value is reported as “stable complex”.

Ends that are not written are not given here. * marks the point of attachment. Biotin = O=C1N[C@H]2[C@H](CS[C@H]2CCCCC(=O)*)N1
